Results: patent US20040220277A1, “Enantiomeric amphetamine compositions” (priority 2003, published 2004)

Legend:
[1] = tested on: noradrenaline (NA) release, frontal cortex; experiment: Basal release of tritiated noradrenaline from rat brain slices in vitro (Brandel system); assay type: cell-based; settings: range in brackets
Experimental: The DA and NA release is measured in separate brain areas, i.e., in striatum for DA release (evaluating tritiated dopamine) and in the frontal cortex for NA release (evaluating tritiated noradrenaline), using a Brandel system. The brain slices are loaded with the tritiated monoamine (dopamine or noradrenaline) and then superfused to produce basal neurotransmitter release. The slices are also subjected to 2 short periods of electrical stimulation to effect stimulated transmitter release.

[2] = tested on: dopamine (DA) release, striatum; experiment: Basal release of tritiated dopamine from rat brain slices in vitro (Brandel system); assay type: cell-based; settings: range in brackets
Experimental: The DA and NA release is measured in separate brain areas, i.e., in striatum for DA release (evaluating tritiated dopamine) and in the frontal cortex for NA release (evaluating tritiated noradrenaline), using a Brandel system. The brain slices are loaded with the tritiated monoamine (dopamine or noradrenaline) and then superfused to produce basal neurotransmitter release. The slices are also subjected to 2 short periods of electrical stimulation to effect stimulated transmitter release. […] Three concentrations are tested, starting at around 1 μM and titrating up or down, to produce an EC50 value. No positive control is needed as the amphetamine will act as its own control, but there is a vehicle control.

| Compound | pEC50 [1] | pEC50 [2] |
| --- | --- | --- |
| C[C@H](N)Cc1ccccc1 [d-amphetamine] | 6.30 | 5.96 |
| C[C@@H](N)Cc1ccccc1 [l-amphetamine] | 6.52 | 5.41 |

pEC50: −log10 of the molar value.
